Assay results reported in PubChem BioAssay (NCI).
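Where inhibition never reached the appropriate level, the endpoint shown equals the highest concentration tested. Otherwise, values were interpolated linearly from a five-concentration, 48-hour dose response in 96-well plates. TGI marks complete inhibition of growth.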

Tests used:
Assay in all cases: inhibition of tumour cell growth, NCI panel, 48 h
SK-OV-3 ovarian = tested on: SK-OV-3 ovarian
SW-620 colon = tested on: SW-620 colon
SNB-19 CNS = tested on: SNB-19 CNS
OVCAR-5 ovarian = tested on: OVCAR-5 ovarian
UACC-62 melanoma = tested on: UACC-62 melanoma
CCRF-CEM leukemia = tested on: CCRF-CEM leukemia
RPMI-8226 leukemia = tested on: RPMI-8226 leukemia
K-562 leukemia = tested on: K-562 leukemia
SR leukemia = tested on: SR leukemia
HS 578T breast = tested on: HS 578T breast
SK-MEL-5 melanoma = tested on: SK-MEL-5 melanoma
TK-10 renal = tested on: TK-10 renal
U251 CNS = tested on: U251 CNS
CAKI-1 renal = tested on: CAKI-1 renal
NCI-H522 lung = tested on: NCI-H522 lung
KM12 colon = tested on: KM12 colon
EKVX NSCLC = tested on: EKVX NSCLC
SF-268 CNS = tested on: SF-268 CNS
RXF 393 renal = tested on: RXF 393 renal
SK-MEL-2 melanoma = tested on: SK-MEL-2 melanoma
SF-295 CNS = tested on: SF-295 CNS
LOX IMVI melanoma = tested on: LOX IMVI melanoma
HCC-2998 colon = tested on: HCC-2998 colon
M14 melanoma = tested on: M14 melanoma
MOLT-4 leukemia = tested on: MOLT-4 leukemia
HOP-62 NSCLC = tested on: HOP-62 NSCLC
786-0 renal = tested on: 786-0 renal
NCI/ADR-RES ovarian = tested on: NCI/ADR-RES ovarian
MDA-MB-231 breast = tested on: MDA-MB-231 breast
COLO 205 colon = tested on: COLO 205 colon
OVCAR-4 ovarian = tested on: OVCAR-4 ovarian
PC-3 prostate = tested on: PC-3 prostate
SK-MEL-28 melanoma = tested on: SK-MEL-28 melanoma
MALME-3M melanoma = tested on: MALME-3M melanoma
IGROV1 ovarian = tested on: IGROV1 ovarian
A498 renal = tested on: A498 renal
OVCAR-8 ovarian = tested on: OVCAR-8 ovarian
A549 NSCLC = tested on: A549 NSCLC
MDA-MB-435 = tested on: MDA-MB-435
ACHN renal = tested on: ACHN renal
UO-31 renal = tested on: UO-31 renal
SNB-75 CNS = tested on: SNB-75 CNS
HCT-15 colon = tested on: HCT-15 colon
DU-145 prostate = tested on: DU-145 prostate
T-47D breast = tested on: T-47D breast
SN12C renal = tested on: SN12C renal
OVCAR-3 ovarian = tested on: OVCAR-3 ovarian
HL-60(TB) leukemia = tested on: HL-60(TB) leukemia
HT29 colon = tested on: HT29 colon
NCI-H23 lung = tested on: NCI-H23 lung
UACC-257 melanoma = tested on: UACC-257 melanoma
NCI-H322M lung = tested on: NCI-H322M lung
HCT-116 colon = tested on: HCT-116 colon
BT-549 breast = tested on: BT-549 breast
MCF7 breast = tested on: MCF7 breast
DMS 273 small cell lung = tested on: DMS 273 small cell lung
DLD-1 colon = tested on: DLD-1 colon
XF 498 CNS = tested on: XF 498 CNS
SNB-78 CNS = tested on: SNB-78 CNS
HOP-92 NSCLC = tested on: HOP-92 NSCLC
RXF-631 renal = tested on: RXF-631 renal
DMS 114 small cell lung = tested on: DMS 114 small cell lung
HOP-18 NSCLC = tested on: HOP-18 NSCLC
M19-MEL melanoma = tested on: M19-MEL melanoma
NCI-H460 lung = tested on: NCI-H460 lung
SF-539 CNS = tested on: SF-539 CNS
KM20L2 colon = tested on: KM20L2 colon
LXFL 529 NSCLC = tested on: LXFL 529 NSCLC

Measured: TGI

O=C(CC(=O)c1ccccc1)OC1CN2CCC1CC2 (configuration not stated)
> 100 µM: SK-OV-3 ovarian | SW-620 colon | SNB-19 CNS | OVCAR-5 ovarian | UACC-62 melanoma | CCRF-CEM leukemia | RPMI-8226 leukemia | K-562 leukemia | SR leukemia | HS 578T breast | SK-MEL-5 melanoma | TK-10 renal | U251 CNS | CAKI-1 renal | NCI-H522 lung | KM12 colon | EKVX NSCLC | SF-268 CNS | RXF 393 renal | SK-MEL-2 melanoma | SF-295 CNS | LOX IMVI melanoma | HCC-2998 colon | M14 melanoma | MOLT-4 leukemia | HOP-62 NSCLC | 786-0 renal | NCI/ADR-RES ovarian | MDA-MB-231 breast | COLO 205 colon | OVCAR-4 ovarian | PC-3 prostate | SK-MEL-28 melanoma | MALME-3M melanoma | IGROV1 ovarian | A498 renal | OVCAR-8 ovarian | A549 NSCLC | MDA-MB-435 | ACHN renal | UO-31 renal | SNB-75 CNS | HCT-15 colon | DU-145 prostate | T-47D breast | SN12C renal | OVCAR-3 ovarian | HL-60(TB) leukemia | HT29 colon | NCI-H23 lung | UACC-257 melanoma | NCI-H322M lung | HCT-116 colon | BT-549 breast | MCF7 breast

CCN(CC)C(=O)Oc1ccc(/C=N/O)nc1
> 100 µM: SK-OV-3 ovarian | DMS 273 small cell lung | SW-620 colon | SNB-19 CNS | OVCAR-5 ovarian | UACC-62 melanoma | CCRF-CEM leukemia | K-562 leukemia | DLD-1 colon | SR leukemia | SK-MEL-5 melanoma | TK-10 renal | U251 CNS | XF 498 CNS | CAKI-1 renal | NCI-H522 lung | SNB-78 CNS | KM12 colon | HOP-92 NSCLC | EKVX NSCLC | RXF-631 renal | DMS 114 small cell lung | SF-268 CNS | RXF 393 renal | SK-MEL-2 melanoma | HOP-18 NSCLC | SF-295 CNS | LOX IMVI melanoma | M19-MEL melanoma | M14 melanoma | MOLT-4 leukemia | HOP-62 NSCLC | 786-0 renal | NCI-H460 lung | COLO 205 colon | OVCAR-4 ovarian | SK-MEL-28 melanoma | MALME-3M melanoma | IGROV1 ovarian | A498 renal | OVCAR-8 ovarian | A549 NSCLC | ACHN renal | UO-31 renal | SNB-75 CNS | SF-539 CNS | HCT-15 colon | KM20L2 colon | SN12C renal | OVCAR-3 ovarian | HL-60(TB) leukemia | HT29 colon | NCI-H23 lung | LXFL 529 NSCLC | UACC-257 melanoma | NCI-H322M lung | HCT-116 colon
